Measured values as given in publication PMC12087874, “Biaryl Phosphates and Phosphonates as Selective Inhibitors of the Transcription Factor STAT4” (Angewandte Chemie (International Ed. in English), 2025).

The chains behind the UniProt entries cited, without tags or fusion partners.
UniProt P40763, whole entry: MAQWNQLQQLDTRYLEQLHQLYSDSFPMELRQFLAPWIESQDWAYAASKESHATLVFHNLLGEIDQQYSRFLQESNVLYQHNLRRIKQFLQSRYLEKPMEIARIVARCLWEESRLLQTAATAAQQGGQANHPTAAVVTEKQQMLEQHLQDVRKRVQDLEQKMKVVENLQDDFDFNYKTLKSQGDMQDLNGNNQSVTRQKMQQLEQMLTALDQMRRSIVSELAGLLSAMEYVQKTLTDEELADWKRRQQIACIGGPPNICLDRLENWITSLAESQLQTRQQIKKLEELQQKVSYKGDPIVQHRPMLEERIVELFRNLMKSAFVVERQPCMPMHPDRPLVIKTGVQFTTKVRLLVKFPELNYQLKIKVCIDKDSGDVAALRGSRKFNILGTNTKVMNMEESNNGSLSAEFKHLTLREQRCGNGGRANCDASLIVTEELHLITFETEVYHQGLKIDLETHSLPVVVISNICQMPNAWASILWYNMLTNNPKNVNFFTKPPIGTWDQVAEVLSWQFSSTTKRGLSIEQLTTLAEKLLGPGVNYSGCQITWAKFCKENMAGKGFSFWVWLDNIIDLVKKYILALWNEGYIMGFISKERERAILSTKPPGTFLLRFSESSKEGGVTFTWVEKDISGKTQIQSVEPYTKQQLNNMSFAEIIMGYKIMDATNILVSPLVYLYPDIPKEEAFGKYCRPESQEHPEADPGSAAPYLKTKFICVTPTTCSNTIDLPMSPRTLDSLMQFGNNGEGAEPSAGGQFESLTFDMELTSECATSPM

Biological target: STAT3 (Homo sapiens, UniProt P40763)
Experiment: CETSA of STAT3 in lysates from NK-92 cells
Assay type: binding
Set-up: endogenous in cells; host or cells: NK-92 (DSMZ) lysate
Conditions: Ac-pYLPQTV-NH2 at 100 µM
Method: NK-92 cells (DSMZ) were cultured in α-MEM containing 12.5% fetal bovine serum (FBS), 12.5% horse serum, 2 mM L-glutamine, penicillin/streptomycin and 50 U/ml IL -2. TALL-104 cells (ATCC, LGC Standards) were cultured in RPMI 1640 medium containing 20% FBS, 2 mM L - glutamine, penicillin/streptomy cin and 100 U/ml IL-2. HCC-827 cells (DSMZ) and K562 cells (DSMZ) were cultured in RPMI 1640 medium containing 10% FBS, 2 mM L -glutamine and penicillin/streptomycin. HCC -827 cells were subcultured by briefly rinsing with sterile PBS followed by incubation with 0.25% Trypsin-EDTA solution before inactivation by addition of cell culture medium (all reagents apart from cell lines were from Gibco at Thermo Fisher Scientific). […]
CETSA experiments were performed essentially using the published protocol. […] The soluble fractions were subsequently analyzed by Western blotting.
The components of cell lysates from treated cells, or heat-treated lysates from CETSA, were separated by SDS-PAGE (10%), transferred to nitrocellulose membrane (Bio-Rad) and detected using monoclonal rabbit primary antibodies (Cell Signaling), α-rabbit-HRP secondary antibody (Dako) and Western Lightning Plus chemiluminescence reagent (Perkin Elmer).
Bands were visualized using an ImageQuant system (GE Healthcare) and quantitated using ImageJ software (NIH). […]

Q: With Ac-pYLPQTV-NH2 [reference compound] as the substance, how does the “stabilization of STAT3 against thermal degradation” value read?
A: stabilizing effect
